Consider 23 compounds from PubChem BioAssay AID2237 (Johns Hopkins Ion Channel Center, 2010).

Protein sequences, listed by entry. Tags and fused reporters are not part of them.
UniProt Q9QUQ5, whole entry: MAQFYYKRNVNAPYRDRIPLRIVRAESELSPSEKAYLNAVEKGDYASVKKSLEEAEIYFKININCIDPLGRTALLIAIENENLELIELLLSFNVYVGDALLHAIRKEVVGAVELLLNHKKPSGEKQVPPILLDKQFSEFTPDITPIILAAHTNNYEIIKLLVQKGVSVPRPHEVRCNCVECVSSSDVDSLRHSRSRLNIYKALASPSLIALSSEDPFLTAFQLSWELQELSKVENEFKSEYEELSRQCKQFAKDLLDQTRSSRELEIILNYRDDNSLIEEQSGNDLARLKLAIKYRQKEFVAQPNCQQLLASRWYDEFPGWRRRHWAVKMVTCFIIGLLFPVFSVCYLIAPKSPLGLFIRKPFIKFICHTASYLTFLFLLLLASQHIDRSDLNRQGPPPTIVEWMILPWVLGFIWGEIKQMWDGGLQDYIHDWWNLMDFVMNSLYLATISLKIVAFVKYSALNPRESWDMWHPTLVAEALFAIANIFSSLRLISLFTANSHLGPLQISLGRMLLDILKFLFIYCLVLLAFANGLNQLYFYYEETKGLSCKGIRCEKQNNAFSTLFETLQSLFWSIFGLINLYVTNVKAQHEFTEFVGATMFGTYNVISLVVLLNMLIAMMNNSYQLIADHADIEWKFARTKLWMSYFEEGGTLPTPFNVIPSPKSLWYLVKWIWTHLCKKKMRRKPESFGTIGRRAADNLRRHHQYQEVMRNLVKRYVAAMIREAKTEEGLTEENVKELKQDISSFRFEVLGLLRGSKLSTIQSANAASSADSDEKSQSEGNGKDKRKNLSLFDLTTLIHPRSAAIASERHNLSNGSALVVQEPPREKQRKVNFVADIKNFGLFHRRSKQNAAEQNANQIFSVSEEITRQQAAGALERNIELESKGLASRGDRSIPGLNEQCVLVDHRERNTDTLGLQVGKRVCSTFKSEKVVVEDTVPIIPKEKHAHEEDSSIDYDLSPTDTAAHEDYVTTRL

Molecules are shown by their SMILES. The list shows a part of the results, in another mix than the full data. Some of these compounds have results that are not shown, active ones among them. Active and inactive are the calls of the source.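 The calls were made as follows: active = B-score above 5 SD of library B-scores, and initial fluorescence ratio not above library mean plus 5 SD; inactive = the rest.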

For the test, the target named is Short transient receptor potential channel 4 (Mus musculus) (UniProt Q9QUQ5). Briefly: activators of mouse TRPC4 channel, primary screen, Fluo4 calcium, HEK293 TRPC4beta/mu-opioid cells (AID 2237). The note with it: Fluo4 calcium fluorescence, at 10 µM.
`CN(C)c1cccc(C(=O)NCC2(N(C)C)CCCCC2)c1`: the outcome was inactive.
For `CC(C)Oc1ccc(C(=O)NCC2(N(C)C)CCCCC2)cc1` the value was “inactive”; for `COc1ccc(Br)c(C(=O)NCC2(N3CCCCC3)CCCCC2)c1`, “inactive”; for `O=C(OC1CN2CCC1CC2)C(CO)(c1ccccc1)c1ccccc1` (stereo not drawn), “inactive”.
To `O=C(NCC1(N2CCCCC2)CCCCC1)c1cccc(Cl)c1` belongs “inactive”; to `COc1cccc(C(=O)NCC2(N3CCCCC3)CCCCC2)c1`, “inactive”.
To `COc1ccc(Cl)cc1C(=O)NCC1(N(C)C)CCCCC1` belongs “inactive”.
Regarding `COc1cc(C(=O)NCC2(N(C)C)CCCCC2)c([N+](=O)[O-])cc1OC`, the result was inactive.
To `CN(C)C1(CNC(=O)c2ccc(Br)cc2)CCCCC1` belongs “inactive”; to `CCN1CCCC(OC(=O)C2(O)c3ccccc3C=Cc3ccccc32)C1` (stereo not drawn), “inactive”.
Regarding `Cc1cc(C(=O)NCC2(N3CCCCC3)CCCCC2)ccc1[N+](=O)[O-]`, the outcome was inactive.
To `O=C(NCC1(N2CCCCC2)CCCCC1)c1cccc(Br)c1` belongs “inactive”; to `COc1ccc(C(=O)NCC2(N(C)C)CCCCC2)cc1`, “inactive”; to `C=CCN1CCN(CCOC(=O)C(O)(c2ccccc2)c2ccccc2)CC1`, “inactive”.
For `O=C(NCC1(N2CCCCC2)CCCCC1)c1cc(F)c(F)cc1Cl` the value was “inactive”; for `Cc1ccccc1C(=O)NCC1(N2CCCCC2)CCCCC1`, “inactive”.
To `CN(C)C1CCCC1OC(=O)C(O)(c1ccccc1)c1ccccc1` (stereo not drawn) belongs “inactive”; to `Cc1ccc(C(=O)NCC2(N3CCCCC3)CCCCC2)cc1`, “inactive”; to `CC(C)N1C(=O)CC2(CCN(CCOC(=O)C(O)(c3ccccc3)c3ccccc3)CC2)C1=O`, “inactive”.
Consider `CCN(CC)CC(C)C(C)OC(=O)C(O)(c1ccccc1)c1ccccc1` (stereo not drawn), for which the result was inactive.
Consider `COc1cc(SC)ccc1C(=O)NCC1(N(C)C)CCCCC1`, for which the outcome was inactive.
To `CN1[C@@H]2CC[C@H]1CC(OC(=O)C(O)(c1ccccc1)c1ccccc1)C2` (stereo partly drawn) belongs “inactive”; to `O=C(NCC1(N2CCCCC2)CCCCC1)c1cc([N+](=O)[O-])ccc1Cl`, “inactive”.
